Measured values published in BindingDB's records for PubMed 8301575 (Institut De Recherches Servier, 1994).

The chains behind the UniProt entries cited, without tags or fusion partners.
UniProt P14842, whole entry: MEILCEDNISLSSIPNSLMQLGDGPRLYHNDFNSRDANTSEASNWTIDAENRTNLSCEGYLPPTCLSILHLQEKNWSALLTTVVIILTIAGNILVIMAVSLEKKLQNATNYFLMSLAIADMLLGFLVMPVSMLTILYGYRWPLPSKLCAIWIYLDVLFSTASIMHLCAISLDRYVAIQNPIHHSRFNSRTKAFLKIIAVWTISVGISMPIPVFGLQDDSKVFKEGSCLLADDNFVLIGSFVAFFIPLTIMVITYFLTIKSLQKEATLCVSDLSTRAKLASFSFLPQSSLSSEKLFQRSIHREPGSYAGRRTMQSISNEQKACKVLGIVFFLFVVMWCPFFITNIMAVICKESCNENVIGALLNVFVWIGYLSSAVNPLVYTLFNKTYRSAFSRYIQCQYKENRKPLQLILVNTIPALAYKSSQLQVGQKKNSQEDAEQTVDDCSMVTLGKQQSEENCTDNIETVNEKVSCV

Molecular target: 5-hydroxytryptamine receptor 2A (Rattus norvegicus, UniProt P14842)

O=C(CCCN1CCC2(CC1)C(=O)NCN2c1ccccc1)c1ccc(F)cc1 [8-[4-(4-fluorophenyl)-4-oxidanylidene-butyl]-1-phenyl-1,3,8-triazaspiro[4.5]decan-4-one]
Ki: 430 pM
